Consider two compounds from patent publication US8278321B2 (priority 2008, dated 2012).

The test system of this assay is microtubules and actin microfilaments of Vero cells. Description: Immunostaining of microtubular and actin cytoskeletons.

For the compound `Fc1cc(F)c2c(c1)[C@H]1C=CC[C@H]1C(c1cccnc1)N2` (mixture of isomers) [GCA, Golgicide A], the “effects on actin microfilaments” value (compared to DMSO-treated cells) is on record as “no effects”.

`COC(=O)Nc1nc2ccc(C(=O)c3cccs3)cc2[nH]1` [nocodazole, reference compound]: the effects on microtubules result (30 min at 37° C., GCA at 10 μM) is “drastic morphological effects”.
